What was measured:
[1] = target: Kv11.1 (hERG) ion channel (Homo sapiens (Human), UniProt Q12809); assay: hERG patch clamp in Kv11.1 transfected HEK293 cells; format: cell-based; details: ratio hErg Ki / KYSE520 pERK IC50
Description: Inhibition of the ion channel hErg (or Kv11.1) current causes QT interval prolongation resulting in potentially fatal ventricular tachyarrhythmia called Torsade de Pointes.
hERG ion channel activity was assessed using a patch clamp technique in stable Kv11.1 (hERG) transfected human embryonic kidney cell line (HEK293). Whole cell recordings were carried out with an automated patch clamp device Patchliner™ from Nanion Technologies, Munich following manufacturer recommendation. Different concentrations of the test compound or reference, quinidine, were applied to whole cells suspension and current was measured using a pulse pattern with fixed amplitudes.

Protein sequences, listed by entry. Tags and fused reporters are not part of them. Lines headed by an entry give the natural chain unless they say otherwise; changes in a name come on top.
UniProt Q12809: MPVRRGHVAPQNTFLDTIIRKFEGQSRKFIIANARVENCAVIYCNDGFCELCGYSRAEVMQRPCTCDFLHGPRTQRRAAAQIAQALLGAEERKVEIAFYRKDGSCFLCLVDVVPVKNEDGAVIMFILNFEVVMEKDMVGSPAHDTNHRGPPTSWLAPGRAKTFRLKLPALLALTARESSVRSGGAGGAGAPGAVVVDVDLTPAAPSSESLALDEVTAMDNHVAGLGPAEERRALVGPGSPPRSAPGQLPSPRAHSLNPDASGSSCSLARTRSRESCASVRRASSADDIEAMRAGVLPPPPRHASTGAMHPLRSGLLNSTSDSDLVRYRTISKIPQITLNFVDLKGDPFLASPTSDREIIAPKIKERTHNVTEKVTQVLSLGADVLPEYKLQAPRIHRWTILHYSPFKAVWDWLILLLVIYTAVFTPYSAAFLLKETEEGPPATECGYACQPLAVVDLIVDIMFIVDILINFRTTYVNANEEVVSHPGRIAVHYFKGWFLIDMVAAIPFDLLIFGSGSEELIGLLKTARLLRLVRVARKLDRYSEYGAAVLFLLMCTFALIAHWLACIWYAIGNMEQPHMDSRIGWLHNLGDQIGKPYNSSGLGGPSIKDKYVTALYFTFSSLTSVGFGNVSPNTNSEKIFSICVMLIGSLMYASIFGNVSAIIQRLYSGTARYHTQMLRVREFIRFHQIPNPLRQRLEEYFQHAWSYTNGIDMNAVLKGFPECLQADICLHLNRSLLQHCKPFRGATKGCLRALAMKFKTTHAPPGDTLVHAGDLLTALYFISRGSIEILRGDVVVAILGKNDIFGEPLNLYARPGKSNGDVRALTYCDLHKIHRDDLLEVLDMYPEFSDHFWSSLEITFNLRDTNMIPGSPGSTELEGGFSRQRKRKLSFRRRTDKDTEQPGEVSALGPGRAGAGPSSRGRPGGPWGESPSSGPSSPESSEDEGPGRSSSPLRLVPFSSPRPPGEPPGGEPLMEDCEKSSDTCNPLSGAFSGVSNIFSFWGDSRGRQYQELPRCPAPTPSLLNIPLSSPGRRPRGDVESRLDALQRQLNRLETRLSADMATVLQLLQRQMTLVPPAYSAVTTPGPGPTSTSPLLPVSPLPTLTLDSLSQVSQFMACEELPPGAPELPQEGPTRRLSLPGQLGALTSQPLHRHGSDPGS

[2] = target: Recombinant human SHP2 protein (2-593) (Homo sapiens (Human), UniProt Q06124); assay: SPR binding assay
Description: The immobilization buffer contained 20 mM HEPES/NaOH (pH 7.4), 150 mM NaCl, 0.05% Tween 20. Inhibitors (stored as 10 mM stock solutions in 100% DMSO) were diluted in running buffer (20 mM HEPES/NaOH pH 7.4, 150 mM NaCl, 1 mM DTT, 5 mM MgCl2 0.1 mM EGTA, 0.05% Tween 20, 2% DMSO @25° C.) and analysed with a Biacore 4000 (Biacore AB, GE Healthcare Life Sciences, Uppsala, Sweden) using a 2-fold dilution series. The highest compound concentration varied according to the expected dissociation constant, but all compounds were tested at 10 different concentrations. Interaction analysis cycles were run at 30 μL/min and consisted of a 140 s sample injection followed by 600 s of buffer flow (dissociation phase). All sensograms were evaluated by first subtracting the binding response recorded from the control surface (reference spot), followed by subtracting a buffer blank injection. To determine kinetic rate constants, data sets were fitted to a simple 1:1 interaction model including a term for mass transport using numerical integration and nonlinear curve fitting. Equilibrium analysis was performed by fitting the response at the end of the association phase to a single-site binding isotherm.

[3] = Pharmacokinetics in mouse (oral / intravenous); format: in vivo; details: female CD1 mice
Description: Female CD1 mice (N=3) received a single oral (gavage) or a single intravenous (bolus) injection of compound. […] Consecutive blood samples were taken sub-lingually under isofluorane inhalation from animals after 0.083 (IV), 0.25, 0.5, 1, 2, 4, 6 and 24 h and were further processed to obtain plasma. Samples were protein precipitated and analysed by LC/MS/MS.

| Fz [3] [%] | Compound | Split between hErg and cell activity Ki (patch Clamp)/IC50 (KYSE) [1] | kon [1/MS] ([2]; SPR, 25° C.) | residence time ([2]; read-out: Residence time [min]) [min] | koff ([2]; read-out: koff [1/s]) [s⁻¹] |
| --- | --- | --- | --- | --- | --- |
| – | Cc1c(N2CCC3(CC2)CO[C@@H](C)[C@H]3N)nc(C)n(-c2cccc(Cl)c2Cl)c1=O (single isomer, unassigned) [Compound 23b] | 136 | 249000 1/MS | 9.3 | 0.0018 |
| 74 | CC1(N)CCN(c2cnc(-c3cccc(Cl)c3Cl)c(N)n2)CC1 [SHP-099, reference compound] | – | – | – | – |
